The results in this text go back to PubChem BioAssay AID720532 (National Center for Advancing Translational Sciences (NCATS), 2013).

Only a part is listed here, and it is no random draw. Some of these compounds have results that are not shown, active ones among them. Records with an inconclusive call do not appear. Calls of active or inactive are those of the source. Calls follow the shape of the full dose curve; tested in HEK293 cells.
% is scaled to controls: 0 for no effect and ±100 for the full control effect.

This test in a line: qHTS for Inhibitors of binding or entry into cells for Marburg Virus. The note with it: Marburg virus pseudotype entry/binding inhibition, cell-based; at 49.2 µM (top of the series). A general note: qHTS replaces the single test concentration by a dilution series.
As to `CN1CCCC(OC(=O)C(O)(c2ccccc2)c2ccccc2)C1` (stereo unspecified), the activity change, negative = inhibition is inactive: -12.7%.
